# AlphaSeq binding of Ab-14 light chain variants to a spike HR2 peptide

Data: MIT Lincoln Laboratory AlphaSeq set, Engelhart et al. 2022, doi:10.1038/s41597-022-01779-4, as distributed in FLAb.

Antigen: PDVDLGDISGINAS, a 14-residue peptide of the SARS-CoV-2 spike HR2 region.

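The parent was found by panning a naive human phage display library on the peptide. AAYL50 was designed without a model: most single CDR substitutions and a random sample of double and triple ones. Affinity was read by AlphaSeq, a pooled yeast mating assay with surface-displayed partners. Pairs that bind mate more often; barcode pairs of the diploids are counted by sequencing. The ratio of observed to expected reads was calibrated, replicate by replicate, on BCL2-family standards whose Kd was known from biolayer interferometry. Each pool was mated in three replicate cultures.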

The variants keep the heavy chain, the linker and the frameworks of Ab-14 (scFv order VH, a (GGGGS)3 linker, VL).
VH: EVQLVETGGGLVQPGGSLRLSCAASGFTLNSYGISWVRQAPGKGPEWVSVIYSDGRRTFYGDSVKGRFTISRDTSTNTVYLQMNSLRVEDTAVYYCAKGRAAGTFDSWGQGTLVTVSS
VL: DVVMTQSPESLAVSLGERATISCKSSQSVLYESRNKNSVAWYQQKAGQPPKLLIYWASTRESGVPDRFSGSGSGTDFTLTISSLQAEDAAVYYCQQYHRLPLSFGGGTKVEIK

Each variant is given by its three light chain CDRs, as the data file delimits them; those of the parent are KSSQSVLYESRNKNSVA, WASTRES, QQYHRLPLS. Values are log10 of the apparent Kd in nM; lower means stronger binding. A mean of the replicates is given; it leaves out those without a signal. "nd" means that the variant was in the library but no mating with the target was seen in that replicate; the authors take this as a sign of poor binding, and no number exists. As a blank, each scFv also met three strains without target: over library AAYL50, 18% of these pairings were detected, typically at 4.19 and seldom below 2.99. Also given: how often the same scFv was detected with the empty control strains, with their mean in brackets.

| CDR-L1 | CDR-L2 | CDR-L3 | log10 Kd, replicates | log10 Kd (nM), mean | control signals |
|---|---|---|---|---|---|
| KPSQSVLYESRIKRSVA | WASTRES | QQYHRLPLS | nd nd 3.63 | 3.63 | 0/9 |
| KSAQSVLYESRNKNSVA | WASTLES | QQYHRLPLP | 5.03 nd nd | 5.03 | 1/9 (4.04) |
| NSSQSVLYESRNVNSVA | WASTRES | QQYHRLPKS | nd 4.00 nd | 4.00 | 3/9 (4.28) |
| KSNQSVLYESRNKNSVA | GASTRES | QQYHRGPLS | nd nd 2.51 | 2.51 | 0/9 |
| RSSQSVEYNSRNKNSVA | WASTRES | QQYHRLPLS | nd nd nd | nd | 4/9 (3.83) |
| KSYQSVLYESRNKNSVA | WASTRES | QPYHRLPKS | nd 4.52 4.56 | 4.54 | 1/9 (5.72) |
| KSSQSVLYESRNKNSVA | WASTRES | SQYHMLPLW | nd nd nd | nd | 0/9 |
| KSSQSVLYESRNKNSVA | WASNRES | QQYHRQPLD | nd nd nd | nd | 0/9 |
| KSSQSVLYESRWKNSVA | WVSTRES | QVYHRLPLS | nd 3.45 4.52 | 3.99 | 4/9 (3.70) |
| KSKQSVLYESRNKNSVA | WASTRES | QQAHRLELS | nd nd nd | nd | 0/9 |
| KSSQSVLYESRRKNSVA | WASTRWK | QQYHRLPLS | nd nd nd | nd | 0/9 |
| KSSVDVLYESRNKNSVA | WASWRES | QQYHRLPLS | 2.92 2.73 3.08 | 2.91 | 3/9 (4.63) |
| KSSQSVLYEVRNKMSVA | WASTRES | QYYHRLPLS | 1.98 2.32 2.37 | 2.22 | 0/9 |
| KSSQCVLYESRNKNSVA | WASTRES | QQRHRLPLS | nd nd nd | nd | 2/9 (3.75) |
| KCSQSVLYEERNKNSVA | WASTRES | QQYHRLELS | nd nd nd | nd | 0/9 |
| KSSQSVLYESRNKNSVA | WASTRAS | KQYARLPLS | 0.54 0.77 0.73 | 0.68 | 3/9 (4.64) |
| KSSQSVLYECRNKNSVA | WASTIES | QQYHRLNLS | nd nd nd | nd | 1/9 (3.29) |
| KSSQKVLYESRNKRSVA | EASTRES | QQYHRLPLS | 4.22 nd nd | 4.22 | 1/9 (3.65) |
| KSSQSTLYESDNKNSVA | WASTRHS | QQYHRLPLS | 0.43 0.63 0.90 | 0.65 | 2/9 (5.12) |
| KSSQSVGYESRNKNSVA | WASTRES | QQYQRLPLS | 0.33 0.58 0.48 | 0.47 | 4/9 (4.43) |
| KSSQSVLYESRNKNCVA | WDSTRES | QQYVRLPLS | 1.59 1.15 2.43 | 1.72 | 3/9 (2.97) |
| KSSQSVAYESRNKNSVA | WMSTRES | QQYHRLNLS | nd nd 6.14 | 6.14 | 3/9 (3.86) |
| KSSQSVLYESRNKNSVA | WTSTREQ | QQYHRPPLS | 0.66 0.65 0.80 | 0.70 | 0/9 |
| PASQSVLYESRNKNSVA | WASTREC | QQYHRLPLS | 2.29 2.19 2.41 | 2.29 | 4/9 (4.73) |
| KSSQFVLYEDRRKNSVA | WASTRES | QQYHRLPLS | 1.25 1.47 1.42 | 1.38 | 1/9 (5.23) |
| KSSQSVRYESRNKNSVA | WASTRES | NQYTRLPLS | nd nd nd | nd | 1/9 (4.21) |
| KSSQSVLYESRNKNHRA | AASTRES | QQYHRLPLS | 2.73 3.28 3.05 | 3.02 | 1/9 (4.82) |
| FSSQSVLYESRNKNSVA | WASTREE | QRYHRLPLS | nd nd 4.58 | 4.58 | 5/9 (4.23) |
| KSSQSVLYESRNKNSVA | WASTTES | QQYHSLPLM | nd nd nd | nd | 0/9 |
| KSSQSVLYESRNKNSVA | WEGTRES | QYYHRLPLS | nd nd nd | nd | 3/9 (4.86) |
| KSSQSVLYESRNKNSVA | WASTRES | QQYHVWPLS | nd 3.87 nd | 3.87 | 0/9 |
| KSSQSVLYESRNRNSVA | WADTRES | QDYHRLPLS | 1.09 1.40 1.27 | 1.25 | 4/9 (3.72) |

4 of these entries, quoted again:

| CDR-L1 | CDR-L2 | CDR-L3 | log10 Kd, replicates | log10 Kd (nM), mean | control signals |
|---|---|---|---|---|---|
| KSSQSVLYESRNKNCVA | WDSTRES | QQYVRLPLS | 1.59 1.15 2.43 | 1.72 | 3/9 (2.97) |
| KSSQSVLYESRNKNSVA | WASTRAS | KQYARLPLS | 0.54 0.77 0.73 | 0.68 | 3/9 (4.64) |
| KSKQSVLYESRNKNSVA | WASTRES | QQAHRLELS | nd nd nd | nd | 0/9 |
| KSSQSVLYESRNKNSVA | WTSTREQ | QQYHRPPLS | 0.66 0.65 0.80 | 0.70 | 0/9 |

For reference, the parent read 0.65 as the reference entry and 1.68 as a member of this library.